Test results reported in patent US9302989B2 (priority 2010, dated 2016).

The chains behind the UniProt entries cited, without tags or fusion partners. Where a name states a change or a piece, a line headed by the entry shows the natural chain unless it says otherwise.
UniProt P43490: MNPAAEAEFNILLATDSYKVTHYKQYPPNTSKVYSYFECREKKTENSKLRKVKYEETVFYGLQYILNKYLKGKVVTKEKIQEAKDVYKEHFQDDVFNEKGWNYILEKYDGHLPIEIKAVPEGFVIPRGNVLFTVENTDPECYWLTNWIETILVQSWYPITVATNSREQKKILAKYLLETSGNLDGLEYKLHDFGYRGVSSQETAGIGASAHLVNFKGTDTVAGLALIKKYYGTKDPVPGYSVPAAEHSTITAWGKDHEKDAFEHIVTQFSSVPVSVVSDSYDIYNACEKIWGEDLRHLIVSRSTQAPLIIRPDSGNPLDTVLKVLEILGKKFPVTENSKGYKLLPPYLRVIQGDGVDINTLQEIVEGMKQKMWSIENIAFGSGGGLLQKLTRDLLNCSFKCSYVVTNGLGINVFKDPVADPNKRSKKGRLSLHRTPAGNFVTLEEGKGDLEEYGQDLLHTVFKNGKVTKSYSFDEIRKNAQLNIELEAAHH

Molecular target: NAMPT (Homo sapiens (Human), UniProt P43490)
Conditions: read-out: TR-FRET Binding IC50 (μM) probe 1

Compound | IC50
CCCn1cc(-c2ccc(NC(=O)N3Cc4ccccc4C3)c(F)c2)cn1 [Example 328, N-[2-fluoro-4-(1-propyl-1H-pyrazol-4-yl)phenyl]-1,3-dihydro-2H-isoindole-2-carboxamide] | 0.331 µM
O=C(NCc1ccc(SC(F)(F)F)cc1)c1ccc(NC(=O)N2Cc3ccccc3C2)cc1 [Example 145, N-[4-({4-[(trifluoromethyl)thio]benzyl}carbamoyl)phenyl]-1,3-dihydro-2H-isoindole-2-carboxamide] | 0.0692 µM
O=C(N[C@H]1c2ccccc2C[C@@H]1O)c1ccc(NC(=O)N2Cc3ccccc3C2)cc1 [Example 417, N-(4-{[(1S,2S)-2-hydroxy-2,3-dihydro-1H-inden-1-yl]carbamoyl}phenyl)-1,3-dihydro-2H-isoindole-2-carboxamide] | 4.91 µM
O=C(NCc1ccc(N2CCCC2=O)cc1)c1ccc(NC(=O)N2Cc3ccccc3C2)cc1 [Example 416, N-(4-{[4-(2-oxopyrrolidin-1-yl)benzyl]carbamoyl}phenyl)-1,3-dihydro-2H-isoindole-2-carboxamide] | 0.041 µM
CS(=O)(=O)c1ccc(C(=O)N2CCN(c3ccc(NC(=O)N4Cc5ccccc5C4)cc3)CC2)cc1 [Example 502, N-(4-{4-[4-(methylsulfonyl)benzoyl]piperazin-1-yl}phenyl)-1,3-dihydro-2H-isoindole-2-carboxamide] | 0.157 µM
COc1ccc(CNC(=O)c2ccc(NC(=O)N3Cc4ccccc4C3)cc2)cc1OC [Example 10, N-{4-[(3,4-dimethoxybenzyl)carbamoyl]phenyl}-1,3-dihydro-2H-isoindole-2-carboxamide] | 0.00525 µM
CC(C)COCCCNC(=O)c1ccc(NC(=O)N2Cc3ccccc3C2)cc1 [Example 108, N-{4-[(3-isobutoxypropyl)carbamoyl]phenyl}-1,3-dihydro-2H-isoindole-2-carboxamide] | 0.0408 µM
CCC(=O)Nc1ccc(NC(=O)N2Cc3ccccc3C2)cc1 [Example 303, N-[4-(propionylamino)phenyl]-1,3-dihydro-2H-isoindole-2-carboxamide] | 0.251 µM
O=C(Nc1ccc(C(=O)N2CCN(c3cnccn3)CC2)cc1)N1Cc2ccccc2C1 [Example 51, N-(4-{[4-(pyrazin-2-yl)piperazin-1-yl]carbonyl}phenyl)-1,3-dihydro-2H-isoindole-2-carboxamide] | 0.0191 µM
CCC(C)(C)NC(=O)c1ccc(NC(=O)N2Cc3ccccc3C2)cc1 [Example 170, N-{4-[(2-methylbutan-2-yl)carbamoyl]phenyl}-1,3-dihydro-2H-isoindole-2-carboxamide] | 0.108 µM
O=C(NC[C@H]1CCOC1)c1ccc(NC(=O)N2Cc3ccccc3C2)cc1 [Example 410, N-(4-{[(3R)-tetrahydrofuran-3-ylmethyl]carbamoyl}phenyl)-1,3-dihydro-2H-isoindole-2-carboxamide] | 0.0295 µM
O=C(Nc1ccc(/C=C/CCCc2ccccc2)cc1)N1Cc2ccccc2C1 [Example 321, N-{4-[(1E)-5-phenylpent-1-en-1-yl]phenyl}-1,3-dihydro-2H-isoindole-2-carboxamide] | 0.203 µM
O=C(Nc1ccc(C(=O)N2CCN(c3ccccc3)CC2)cc1)N1Cc2ccccc2C1 [Example 65, N-{4-[(4-phenylpiperazin-1-yl)carbonyl]phenyl}-1,3-dihydro-2H-isoindole-2-carboxamide] | 0.0238 µM
CC(C)C(=O)N1CC=C(c2ccc(NC(=O)N3Cc4ccccc4C3)cc2)CC1 [Example 331, N-[4-(1-isobutyryl-1,2,3,6-tetrahydropyridin-4-yl)phenyl]-1,3-dihydro-2H-isoindole-2-carboxamide] | 0.00611 µM
CCCNC(=O)c1ccc(NC(=O)N2Cc3ccc(NC(=O)C(C)(C)O)cc3C2)cc1 [Example 277, 5-[(2-hydroxy-2-methylpropanoyl)amino]-N-[4-(propylcarbamoyl)phenyl]-1,3-dihydro-2H-isoindole-2-carboxamide] | 1.02 µM
CN(CCCc1ccccc1)C(=O)c1ccc(NC(=O)N2Cc3ccccc3C2)cc1 [Example 158, N-{4-[methyl(3-phenylpropyl)carbamoyl]phenyl}-1,3-dihydro-2H-isoindole-2-carboxamide] | 0.0857 µM
CC(C)(C)CCNC(=O)c1ccc(NC(=O)N2Cc3ccccc3C2)cc1 [Example 53, N-{4-[(3,3-dimethylbutyl)carbamoyl]phenyl}-1,3-dihydro-2H-isoindole-2-carboxamide] | 0.0197 µM
N#Cc1ccc(NC(=O)c2ccc(NC(=O)N3Cc4ccccc4C3)cc2)cc1 [Example 176, N-{4-[(4-cyanophenyl)carbamoyl]phenyl}-1,3-dihydro-2H-isoindole-2-carboxamide] | 0.12 µM
CC(C)[C@@H](CO)NC(=O)c1ccc(NC(=O)N2Cc3ccccc3C2)cc1 [Example 174, N-(4-{[(2S)-1-hydroxy-3-methylbutan-2-yl]carbamoyl}phenyl)-1,3-dihydro-2H-isoindole-2-carboxamide] | 0.12 µM
O=C(Nc1ccccc1)c1ccc(NC(=O)N2Cc3ccccc3C2)cc1 [Example 188, N-[4-(phenylcarbamoyl)phenyl]-1,3-dihydro-2H-isoindole-2-carboxamide] | 0.148 µM
CCCCCC(=O)Nc1ccc(NC(=O)N2Cc3ccccc3C2)cc1 [Example 305, N-[4-(hexanoylamino)phenyl]-1,3-dihydro-2H-isoindole-2-carboxamide] | 0.0121 µM
O=C(NCc1ccccn1)c1ccc(NC(=O)N2Cc3ccccc3C2)cc1 [Example 60, N-{4-[(pyridin-2-ylmethyl)carbamoyl]phenyl}-1,3-dihydro-2H-isoindole-2-carboxamide] | 0.0224 µM
CC(C)(C)OC(=O)N1CCN(c2nc3ccc(NC(=O)N4Cc5ccccc5C4)cc3[nH]2)CC1 [Example 422, tert-butyl 4-{6-[(1,3-dihydro-2H-isoindol-2-ylcarbonyl)amino]-1H-benzimidazol-2-yl}piperazine-1-carboxylate] | 3.94 µM
O=C(Nc1ccc(C(=O)N2CCN(CCO)CC2)cc1)N1Cc2ccccc2C1 [Example 202, N-(4-{[4-(2-hydroxyethyl)piperazin-1-yl]carbonyl}phenyl)-1,3-dihydro-2H-isoindole-2-carboxamide] | 0.192 µM
O=C(NCCCCC1CCN(C(=O)c2cccnc2)CC1)N1Cc2ccccc2C1 [Example 350, N-{4-[1-(pyridin-3-ylcarbonyl)piperidin-4-yl]butyl}-1,3-dihydro-2H-isoindole-2-carboxamide] | 0.00825 µM
CCOC(=O)CCCCCNC(=O)N1Cc2ccccc2C1 [Example 355, ethyl 6-[(1,3-dihydro-2H-isoindol-2-ylcarbonyl)amino]hexanoate] | 0.124 µM
CSCCCNC(=O)c1ccc(NC(=O)N2Cc3ccccc3C2)cc1 [Example 141, N-(4-{[3-(methylthio)propyl]carbamoyl}phenyl)-1,3-dihydro-2H-isoindole-2-carboxamide] | 0.0656 µM
N#Cc1ccccc1N1CCN(C(=O)c2ccc(NC(=O)N3Cc4ccccc4C3)cc2)CC1 [Example 84, N-(4-{[4-(2-cyanophenyl)piperazin-1-yl]carbonyl}phenyl)-1,3-dihydro-2H-isoindole-2-carboxamide] | 0.0308 µM
O=C(Nc1ccc(C(=O)N2CCN(c3ccccn3)CC2)cc1)N1Cc2cccnc2C1 [Example 448, N-{4-[(4-pyridin-2-ylpiperazin-1-yl)carbonyl]phenyl}-5,7-dihydro-6H-pyrrolo[3,4-b]pyridine-6-carboxamide] | 0.021 µM
